These results are taken from patent US7709613B2, “Rhenium-188 and rhenium-186 for treatment of tumors expressing a Na+/I− symporter” (priority 2002, dated 2010).

This series relates to NIS-expressing xenografted mammary adenocarcinoma (NAFA cells). It counts as in vivo, nude mice. As to conditions: 24 hr; liver. As for the experimental part: Animal model. […] Since erbB-2 (Neu) is one of the better known human breast cancer oncogenes, a mammary tumor cell line (NAFA) induced by oncogenic Neu was used. The NAFA cell line derived from the MMTV-NeuT mouse was grown in DMEM with 10% fetal bovine serum and 1% penicillin-streptomycin. […] Female nude mice (Charles River Laboratories) 4-6 weeks old were injected SC with 10^6 NAFA cells into the left groin.
Biodistribution. […] In order to block mg-NIS in expressing organs and tumor, control animals were injected with the above mixture of isotopes combined with 2 mg NaClO4. […] The % ID/g for each organ was determined, and RIs (% ID/g in the tumor divided by the % ID/g in normal tissue) were calculated.

Structures are written as SMILES.

Turning to `[I-].[Na+]` [^125I^−, sodium iodide], the “Tumor to normal organ ratio (RI)” value is on record as 6.25.
